Experiments:
[1] = test system: relapsing remitting multiple sclerosis; experiment: Clinical response of RRMS patients to IFNβ therapy; type: in vivo, human; conditions: median
Method: MS Patients Clinical Classification and Serum Collection. Twenty-six closely monitored RRMS patients receiving IFNβ treatment for at least 12 months were identified from the outpatient clinic as responders or non-responders to IFNβ therapy at the MS Center Amsterdam, the Netherlands. The patients were classified based on EDSS (Extended Disability Status Scale) progression and the number of relapses and steroid interventions (3 days of 1000 mg/day i.v. methylprednisolone) in the two years before initiation of treatment as compared to the first two years after starting treatment (see Table 1). Two MS neurologists, blinded to the laboratory data, independently classified the selected patients as responder or non-responder. In case of disagreement there was a consensus meeting afterwards. Serum samples were obtained at a fixed time of the day just before starting IFNβ therapy. The study design received approval from the institutional Medical Ethics Board of the VU University Medical Center, Amsterdam, the Netherlands. All patients signed written informed consent.

[2] = test system: neuromyelitis optica (NMO); conditions: in vivo; cited from earlier work
[3] = test system: TH17 EAE; experiment: TH17 EAE, treatment of induced disease; type: in vivo; conditions: IFN-β treatment
Method: Statistical analysis. EAE data are presented as means±SEM and statistical significance was determined using a two tailed Mann-Whitney test with a value of P<0.05 was considered significant. STAT1 activation and ELISA data are presented as means±1 standard deviation and statistics significance was determined using a two tailed student T-test.

## IFN-β: interferon β (Avonex, Betaseron, Rebif), conventional treatment for MS
[1]; Non-responder (14 patients)
  Relapse rate in 2 yrs after start IFNβ: 2
[1]; Responder (12 patients)
  Relapse rate in 2 yrs after start IFNβ: 0
[2]
  relapses in individuals with NMO: induces severe relapses
[3]
  symptoms in TH17 induced EAE: worsened

From patent US20130046015A1, “Therapeutic Inhibition of Granulocyte Function in Demyelinating Disease” (priority 2010, published 2013)
